The subject of this assay is HT1080 cells. Nature of the assay: D2HG production inhibition in HT1080 cells. To be noted: Homo sapiens, HT-1080, 48 h, read-out: IC50 for inhibition of D2HG.

Regarding `Cc1cc(Cc2ccc(O)cc2)n(O)c(=O)c1` [Compound 3], the half-inhibitory concentration (IC50) was determined as 8.5 ± 2.5 µM. `O=c1cccc(Cc2ccccc2)n1O` [Compound 7]: the IC50 was over 30 µM.

As usually defined, the IC50 is the midpoint of a concentration-inhibition curve.

The record behind these values is article PMC4207540 (Journal of Medicinal Chemistry, 2014).
